The experiment has as its target T1, PYRIN-8 truncation mutant lacking the PYRIN domain (PYRIN-8ΔPYRIN, residues 89-1061 of SEQ ID NO:18) with a … (human, UniProt P59046 89-1061).
T1 construct: Expressed from pCI (Promega) in transfected cells
T1 sequence: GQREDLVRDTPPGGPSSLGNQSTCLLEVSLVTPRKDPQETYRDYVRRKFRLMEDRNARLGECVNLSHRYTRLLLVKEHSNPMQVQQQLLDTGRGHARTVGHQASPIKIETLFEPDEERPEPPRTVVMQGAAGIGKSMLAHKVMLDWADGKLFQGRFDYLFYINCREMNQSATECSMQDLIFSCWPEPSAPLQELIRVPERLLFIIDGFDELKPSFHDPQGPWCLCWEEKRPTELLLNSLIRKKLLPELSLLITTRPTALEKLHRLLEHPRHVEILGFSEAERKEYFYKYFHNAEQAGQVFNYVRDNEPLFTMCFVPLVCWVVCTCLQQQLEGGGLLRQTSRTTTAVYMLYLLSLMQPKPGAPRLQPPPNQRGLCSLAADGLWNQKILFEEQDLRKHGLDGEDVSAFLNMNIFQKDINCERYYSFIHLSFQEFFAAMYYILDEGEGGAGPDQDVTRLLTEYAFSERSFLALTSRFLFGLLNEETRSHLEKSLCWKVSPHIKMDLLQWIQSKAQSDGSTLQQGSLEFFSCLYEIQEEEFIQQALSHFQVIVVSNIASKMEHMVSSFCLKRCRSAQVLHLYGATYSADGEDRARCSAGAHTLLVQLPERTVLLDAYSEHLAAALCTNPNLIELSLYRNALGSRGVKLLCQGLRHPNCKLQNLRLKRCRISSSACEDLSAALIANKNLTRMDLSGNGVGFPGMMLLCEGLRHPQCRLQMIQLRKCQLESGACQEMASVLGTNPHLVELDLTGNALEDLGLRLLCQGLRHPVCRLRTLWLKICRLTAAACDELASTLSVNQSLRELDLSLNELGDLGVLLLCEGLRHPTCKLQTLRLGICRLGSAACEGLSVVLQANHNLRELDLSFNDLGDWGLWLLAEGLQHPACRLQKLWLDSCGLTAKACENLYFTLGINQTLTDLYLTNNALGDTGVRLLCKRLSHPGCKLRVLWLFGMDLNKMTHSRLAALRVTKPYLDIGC
Nature of the experiment: co-localization by immunostaining in co-transfected 293T cells. As for the experimental part:
Cellular co-localization studies were carried out to determine whether PYRIN-8 interacts with CARD-5 (also known as ASC) when the two proteins were overexpressed in 293T embryonic kidney cells. Plasmids expressing either full-length PYRIN-8 (PYRIN-8-FL, residues 1-1061 of SEQ ID NO:18) or a PYRIN-8 truncation mutant lacking the PYRIN domain (PYRIN-8ΔPYRIN, residues 89-1061 of SEQ ID NO:18) with a C-terminal FLAG epitope were constructed using pCI (Promega). FLAG-tagged PYRIN-8 and HA-tagged CARD-5 were expressed in cells and detected using a mixture of anti-HA and anti-FLAG antibodies.
In immunostaining assays to detect cellular localization, 293T cells were transfected in poly-D-lysine-coated glass chamber slides (BioCoat, Becton-Dickinson Labware) with plasmids expressing HA-tagged CARD-5 and either FLAG-tagged PYRIN-8 or PYRIN-8ΔPYRIN using SuperFect transfection reagent (Qiagen). Cells were fixed 24 hours after transfection in 4% paraformaldehyde, permeabilized and blocked in a buffer containing 0.3% Triton X-100, and incubated with the following primary and secondary antibodies: rabbit anti-HA polyclonal Y-11 (Santa Cruz Biotechnology), mouse anti-FLAG monoclonal antibody M2 (Sigma), Alexa-350 goat anti-rabbit IgG (Molecular Probes), and Alexa-598 goat anti-mouse IgG (Molecular Probes). […]

B1: HA-tagged CARD-5 (other, UniProt Q9ULZ3 1-195, looked up, not shown: small tags and cut ends)
chain: MGRARDAILDALENLTAEELKKFKLKLLSVPLREGYGRIPRGALLSMDALDLTDKLVSFYLETYGAELTANVLRDMGLQEMAGQLQAATHQGSGAAPAGIQAPPQSAAKPGLHFIDQHRAALIARVTNVEWLLDALYGKVLTDEQYQAVRAEPTNPSKMRKLFSFTPAWNWTCKDLLLQALRESQSYLVEDLERS
notes: also called ASC; CARD-5 (ASC)
For B1, the binding result is listed as “no binding”.
